The values that follow are results of earlier work, collected in patent publication US8747895B2, “Orally disintegrating tablets of atomoxetine” (priority 2004, dated 2014).

For this series the following is noted: oral administration.

Turning to “(−)-N-Methyl-3-(o-tolyloxy)-propylamine hydrochloride [Atomoxetine]”, the elimination half-life entry is “about 5 hours”.
